Target: full length USP7 (Homo sapiens (Human), UniProt Q93009)
Assay: Ub-AMC enzymatic assay with full-length USP7
Format: biochemical
Experimental: The constructs encoding USP7 full length (amino acids 1-1102) and catalytic domain (208-560) used were cloned as described (Lamberto, I. et al. Structure-Guided Development of a Potent and […] Selective Non-covalent Active-Site Inhibitor of USP7. Cell Chem. Biol. 24, 1490-1500 (2017)). Both constructs were overexpressed in E. coli BL21 (DE3). Cells were grown at 37° C. to an OD of 0.9, cooled to 16° C., induced with 500 μM isopropyl-1-thio-D-galactopyranoside (IPTG), incubated overnight at 16° C., collected by centrifugation, and stored at −80° C. Cell pellets were sonicated in lysis buffer (25 mM Tris pH 8, 1 M NaCl, and 10 mM BME) supplemented with 10 μg/ml phenylmethanesulfonylfluoride (PMSF) and the resulting lysate was centrifuged at 30,000×g for 40 min. Ni-NTA beads (Qiagen) were mixed with lysate supernatant for 2 hours, and washed with lysis buffer supplemented with 25 mM imidazole. […]
Full length USP7 was tested for its activity in Ubiquitin-AMC assay in presence or absence of inhibitors. […] The initial rate of the reaction was measured by collecting fluorescence data at one minute intervals over 30-minute period using a Clariostar fluorescence plate reader at excitation and emission wavelength of 345 and 445 nm respectively. The calculated initial rate values were plotted against inhibitor concentrations to determine IC50s. […]

Protein sequences, listed by entry. Tags and fused reporters are not part of them.
UniProt Q93009, whole entry: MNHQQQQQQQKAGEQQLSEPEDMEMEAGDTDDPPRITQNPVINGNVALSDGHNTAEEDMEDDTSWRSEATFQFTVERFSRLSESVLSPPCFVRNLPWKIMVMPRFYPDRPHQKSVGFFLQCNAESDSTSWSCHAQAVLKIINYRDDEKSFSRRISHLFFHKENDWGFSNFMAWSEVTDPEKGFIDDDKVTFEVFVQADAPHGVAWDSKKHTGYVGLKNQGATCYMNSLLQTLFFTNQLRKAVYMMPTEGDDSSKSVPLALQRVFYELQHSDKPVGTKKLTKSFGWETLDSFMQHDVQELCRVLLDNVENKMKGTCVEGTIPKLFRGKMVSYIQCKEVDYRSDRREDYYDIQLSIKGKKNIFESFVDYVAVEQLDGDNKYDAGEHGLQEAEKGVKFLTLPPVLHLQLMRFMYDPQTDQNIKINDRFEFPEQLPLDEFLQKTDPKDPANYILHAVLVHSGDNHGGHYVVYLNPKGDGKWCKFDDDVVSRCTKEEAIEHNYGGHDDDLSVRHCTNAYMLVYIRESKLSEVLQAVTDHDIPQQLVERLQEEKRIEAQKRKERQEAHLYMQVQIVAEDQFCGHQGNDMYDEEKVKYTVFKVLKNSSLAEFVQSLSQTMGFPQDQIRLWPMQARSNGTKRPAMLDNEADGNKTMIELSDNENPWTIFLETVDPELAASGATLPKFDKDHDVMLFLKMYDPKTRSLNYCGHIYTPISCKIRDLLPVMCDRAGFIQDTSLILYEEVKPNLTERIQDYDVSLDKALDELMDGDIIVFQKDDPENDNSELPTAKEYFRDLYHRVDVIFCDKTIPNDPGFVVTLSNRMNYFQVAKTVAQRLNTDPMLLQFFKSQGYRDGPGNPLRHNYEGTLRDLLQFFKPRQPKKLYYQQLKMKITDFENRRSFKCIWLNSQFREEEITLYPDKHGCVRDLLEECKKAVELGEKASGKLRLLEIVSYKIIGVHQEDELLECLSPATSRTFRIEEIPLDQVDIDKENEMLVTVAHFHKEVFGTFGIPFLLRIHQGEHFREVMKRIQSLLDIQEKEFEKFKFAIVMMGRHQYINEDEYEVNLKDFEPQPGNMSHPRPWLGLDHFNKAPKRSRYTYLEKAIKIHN

## HBX-19818 [reference compound]
  IC50 against USP7 (range in words): micromolar

Source: patent publication US12503453B2, “USP7 inhibition” (Dana-Farber Cancer Institute, Inc., priority 2018, dated 2025)
